The record followed here is ChEMBL document CHEMBL3994659, “Synthesis and antimicrobial evaluation of cationic low molecular weight amphipathic 1,2,3-triazoles” (Bioorg Med Chem Lett, 2017).

In one assay the test system is Pseudomonas aeruginosa. As to conditions: ATCC 27853.
Another assay relates to Escherichia coli. As to conditions: ATCC 25922.

What is called MIC is the least concentration at which growth counts as inhibited. Low readings indicate a more susceptible organism, high ones a less susceptible organism.

GENTAMICIN: the MIC against Pseudomonas aeruginosa and against Escherichia coli was 0.5 µg/mL each time.
